This experiment has as its system HBV. The experiment is described as follows: HBV assay in HepG2.117 cells (HBV DNA qPCR). The class given is cell-based. Conditions: Hepatitis B virus, mean of at least 3 experiments. (In general: In qPCR the cycle at which signal appears reflects the starting amount.)

Data on one compound can be found in publication PMC5537225, “Therapeutic efficacy of a respiratory syncytial virus fusion inhibitor” (Nature Communications, 2017).

As a reminder, the EC50 is the concentration that produces a half-maximal response. A lower EC50 goes with higher potency in that assay. Regarding `CS(=O)(=O)CCCn1c(Cn2c(=O)n(CC(F)(F)F)c3ccncc32)cc2cc(Cl)ccc21` [JNJ-53718678], the midpoint of the response, the EC50, lay at 26.8 µM.
